In patent US7666446B2, “Oral formulation for delivery of poorly absorbed drugs” (ProCarrier, Inc., priority 2004, dated 2010):

Experiment: Plasma catechin after intraduodenal catechin/PEP (HPLC)
Type: in vivo
Conditions: rats, 300 mg/kg catechin
Protocol: The abdominal muscle was sutured under the skin. […] Four rats were in each treatment group. […]
Catechin solution was mixed with a solution of methylcellulose, and this mixture was added to solutions of glucosamine and sucrose palmitate in water before administration to rats. […] The contents of catechin/PEP comprised and individual dosage of 300 mg/kg catechin, 400 mg/kg sucrose palmitate, glucosamine in a 1:4 mole ratio of catechin to glucosamine, and methylcellulose in a 1:0.5 mole ratio of catechin to methylcellulose. […] Plasma was analyzed by HPLC, and bioavailability was calculated.

Question: For Catechin [Catechin control], which “Concentration (catechin in plasma)” value (0 min) is on record?
Answer: The value was 1170 ng/mL.

Question: And the “Concentration (catechin in plasma)” value (15 min)?
Answer: The value was 4480 ng/mL.

Question: What about the “Concentration (catechin in plasma)” value (30 min) of the same substance?
Answer: The value was 7830 ng/mL.

Question: What about the “Concentration (catechin in plasma)” value (60 min) of the same substance?
Answer: Its value is 10720 ng/mL.

Question: What about the “Concentration (catechin in plasma)” value (90 min) of the same substance?
Answer: The value was 14600 ng/mL.

Question: And the “Concentration (catechin in plasma)” value (120 min)?
Answer: The value was 17530 ng/mL.

Question: And the “Concentration (catechin in plasma)” value (180 min)?
Answer: Its value is 18740 ng/mL.
